# Ab-14 light chain CDR variants: yeast mating affinities

Source: Li et al. 2023 (doi:10.1038/s41467-023-39022-2), MIT Lincoln Laboratory and A-Alpha Bio; data file from the FLAb repository.

Antigen: PDVDLGDISGINAS, a 14-residue peptide of the SARS-CoV-2 spike HR2 region.

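The starting antibody came from a phage panning campaign against this peptide. These sequences belong to a second round, designed from the earlier measurements on random variants of the parent. Their group label is 14L_GP_HC (GP: Gaussian process model; HC: hill climbing; a sequence that several methods proposed may carry one label only). The scFvs were displayed on barcoded MATa yeast, the peptide on MATalpha yeast. Pairs that bind mate more often; barcode pairs of the diploids are counted by sequencing. The ratio of observed to expected reads was calibrated, replicate by replicate, on BCL2-family standards whose Kd was known from biolayer interferometry. There are six technical replicates.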

Ab-14 is the parent antibody, in scFv form: VH, then three GGGGS repeats, then VL. The heavy chain is unchanged in all variants.
VH: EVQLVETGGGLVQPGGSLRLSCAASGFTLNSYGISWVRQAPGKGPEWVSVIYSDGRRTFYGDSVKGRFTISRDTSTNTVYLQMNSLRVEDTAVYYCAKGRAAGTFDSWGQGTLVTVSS
VL: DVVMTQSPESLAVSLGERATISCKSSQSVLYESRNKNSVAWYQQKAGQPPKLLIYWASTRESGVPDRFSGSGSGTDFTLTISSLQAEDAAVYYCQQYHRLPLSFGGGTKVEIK

Substitutions are numbered in sequence along the VL above, starting at 1 (not Kabat).
Affinities are written as log10 Kd with Kd in nM; a lower number is a better binder.
The mean shown is taken over the replicates in which the pair was detected.
Where no diploid with the target was found in that replicate, the entry reads "nd": below detection, most likely a poor binder, though not proof of it.
The range of this assay differs from that of the first round, and the authors advise against merging the two.

| changes | log10 Kd (nM) by replicate | mean, log10 nM | control signals |
|---|---|---|---|
| S28M+V29Y+W56G | 0.37 / 0.01 / -0.12 / -0.17 / -0.01 / 0.09 | 0.03 | 2/18 (3.42) |
| S25V+Q27D+V29Y+Y31L+W56E | 0.18 / 0.62 / -0.07 / 0.14 / 0.11 / 0.31 | 0.21 | 0/18 |
| S25E+V29W+L30A+W56G | 1.59 / 1.93 / 1.75 / 2.48 / 2.20 / 1.33 | 1.88 | 1/18 (2.19) |
| S25A+S26V+V29W+W56G | -0.13 / -0.11 / -0.29 / -0.08 / -0.27 / 0.09 | -0.13 | 1/18 (2.04) |
| S26L+V29D+K36F+W56H+S62D | 0.81 / 1.09 / 0.76 / 0.66 / 0.98 / 0.89 | 0.86 | 0/18 |
| S25M+V29F+W56D | -0.44 / -0.60 / -0.59 / -0.61 / -0.76 / -0.61 | -0.60 | 1/18 (2.49) |
| S25Q+L30D+S38A+W56D+Q96M+R99W | -0.20 / 0.08 / -0.07 / 0.30 / 0.29 / 0.26 | 0.11 | 3/18 (2.07) |
| Q27I+V29Y+Y31G+E32L+W56E | 0.51 / 0.29 / 0.27 / 0.23 / 0.23 / 0.46 | 0.33 | 1/18 (3.21) |
| S25Q+Y31F+W56D+T59F | 0.05 / -0.06 / -0.25 / -0.44 / -0.36 / 0.06 | -0.17 | 0/18 |
| Q27G+V29Y+R34G+W56E | 0.95 / -0.58 / 0.05 / 0.03 / 0.48 / 1.01 | 0.32 | 0/18 |
| Q27I+V29Y+R34V+W56E+T59Q | nd / nd / 2.20 / nd / nd / nd | 2.20 | 0/18 |
| S25V+V29F+S38A+W56Q | -0.24 / -0.34 / -0.31 / -0.46 / -0.39 / -0.23 | -0.32 | 1/18 (3.12) |
| S25M+S26E+S28G+V29W+W56G+T59V | -0.24 / -0.22 / -0.16 / -0.15 / -0.42 / -0.15 | -0.22 | 1/18 (1.89) |
| S25L+R34G+N35T+W56N | -0.07 / 0.05 / -0.20 / -0.08 / 0.20 / 0.26 | 0.03 | 2/18 (2.60) |
| S28G+V29D+W56G | -0.07 / -0.09 / -0.24 / -0.27 / -0.27 / 0.02 | -0.15 | 0/18 |
| S26Q+W56H+S62D+Q96L | 1.77 / 1.80 / 1.32 / 1.67 / 1.85 / 2.04 | 1.74 | 0/18 |
| K24N+V29E+W56G+A57G+S58N | 0.29 / 0.66 / 0.05 / 0.21 / 0.31 / 0.31 | 0.31 | 0/18 |
| Q27I+V29G+Y31E+W56E | 0.27 / 0.26 / -0.20 / -0.40 / 0.43 / -0.11 | 0.04 | 0/18 |
| K24S+S25F+W56H | 0.25 / 0.04 / -0.16 / -0.07 / -0.12 / 0.08 | 0.00 | 1/18 (4.31) |
| S25V+Q27A+V29Y+Y31L+W56E | -0.24 / -0.48 / -0.47 / -0.43 / -0.45 / -0.37 | -0.41 | 1/18 (1.48) |
| V29F+N35W+W56N+T59Q | 0.66 / 0.31 / 0.35 / 0.38 / 0.23 / 0.22 | 0.36 | 1/18 (2.79) |
| K24H+Q27P+L30S+W56N | nd / 1.67 / 2.08 / 1.97 / 2.27 / 1.91 | 1.98 | 1/18 (2.16) |
| K24H+S25L+Q27P+L30P+W56N+S62E+Q96D | 0.06 / 0.05 / -0.03 / 0.10 / -0.10 / 0.12 | 0.04 | 2/18 (2.83) |
| S25L+S26P+Q27N+V29T+N35Q+W56M | 0.95 / 0.71 / 0.75 / 0.82 / 0.56 / 0.92 | 0.78 | 1/18 (2.67) |
| S25M+V29W+W56G | -0.52 / -0.56 / -0.92 / -0.88 / -0.79 / -0.82 | -0.75 | 0/18 |
| S25F+S33P+N35T+W56N+Q96W | 0.98 / 1.12 / 1.40 / 1.35 / 0.72 / 1.67 | 1.21 | 1/18 (2.67) |
| S26G+S28G+V29D+K36W+W56G | -0.13 / -0.10 / -0.24 / -0.21 / 0.01 / -0.12 | -0.13 | 1/18 (2.76) |
| S25L+S26R+V29M+L30N+W56N+Q96I | 1.96 / nd / nd / 1.17 / 2.01 / 1.86 | 1.75 | 1/18 (2.61) |
| K24H+S25V+Q27P+V29E+W56N | -0.33 / -0.31 / -0.40 / -0.55 / -0.43 / -0.29 | -0.39 | 0/18 |
| S25A+V29F+K36F+W56G | 0.43 / 0.16 / 0.48 / -0.07 / 0.12 / 0.17 | 0.22 | 1/18 (2.62) |
| S25Q+S28A+V29F+Y31E+W56D+S58N | nd / nd / nd / nd / 2.82 / nd | 2.82 | 0/18 |
| K24Q+S25L+V29F+W56G | -0.06 / -0.14 / 0.02 / -0.05 / -0.30 / -0.05 | -0.10 | 1/18 (2.18) |
| S26G+S28G+W56G+S103I | 0.19 / 0.00 / -0.07 / -0.04 / 0.25 / -0.13 | 0.03 | 1/18 (3.48) |
| V29F+N35W+W56E+T59Q | 0.97 / 0.56 / 0.73 / 0.46 / 0.70 / 1.00 | 0.74 | 1/18 (3.97) |
| S26Q+S38N+W56D+S62D | -0.07 / -0.44 / 0.19 / -0.12 / -0.08 / -0.46 | -0.16 | 0/18 |

Excerpt, the final 4 entries:

changes,log10 Kd (nM) by replicate,"mean, log10 nM",control signals
K24Q+S25L+V29F+W56G,-0.06 / -0.14 / 0.02 / -0.05 / -0.30 / -0.05,-0.10,1/18 (2.18)
S26G+S28G+W56G+S103I,0.19 / 0.00 / -0.07 / -0.04 / 0.25 / -0.13,0.03,1/18 (3.48)
V29F+N35W+W56E+T59Q,0.97 / 0.56 / 0.73 / 0.46 / 0.70 / 1.00,0.74,1/18 (3.97)
S26Q+S38N+W56D+S62D,-0.07 / -0.44 / 0.19 / -0.12 / -0.08 / -0.46,-0.16,0/18

The parent sequence was in this pool as ten entries: three were never detected, three once, and four in most replicates, with averages from 0.34 to 2.37.
In the paper, a design with two or fewer of six values counts as a poor binder.
As a blank, each scFv also met three strains without target: over all light chain designs, 4% of these pairings were detected, typically at 2.64 and seldom below 1.59. For each scFv, signals with the empty controls are counted beside the result, with their mean in brackets.